# Only a part is listed here, and it is no random draw. Activity calls are given as the source filed them. Rule as the data show it: active = activation above about 30%; inactive = the rest.
# Chains of the proteins cited; added tags and fusions are not shown.
# UniProt P34981, whole entry: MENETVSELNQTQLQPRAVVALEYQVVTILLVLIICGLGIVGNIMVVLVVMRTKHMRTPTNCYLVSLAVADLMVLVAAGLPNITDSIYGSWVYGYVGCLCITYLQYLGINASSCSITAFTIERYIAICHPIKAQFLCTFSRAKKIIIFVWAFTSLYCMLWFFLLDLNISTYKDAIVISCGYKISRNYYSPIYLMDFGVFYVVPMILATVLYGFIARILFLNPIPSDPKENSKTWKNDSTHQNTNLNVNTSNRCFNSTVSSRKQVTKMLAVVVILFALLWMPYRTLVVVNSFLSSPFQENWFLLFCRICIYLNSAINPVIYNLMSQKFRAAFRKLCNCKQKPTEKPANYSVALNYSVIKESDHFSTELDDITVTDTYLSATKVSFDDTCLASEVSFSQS
# Biological target: Thyrotropin-releasing hormone receptor (Homo sapiens) (UniProt P34981)
# Experiment: qHTS for Small Molecule Agonists and Allosteric Enhancers of Human TRH Receptor: Primary Screen for Agonists. Also: 0% is about no effect.
# Settings: TRHR cells, calcium flux fluo-8, FDSS agonist mode; at 2 µM; active compounds read high
# Text: NIH Chemical Genomics Center [NCGC] NIH Molecular Libraries Probe Centers Network [MLPCN] MLPCN Grant: MH089816-01 Assay Submitter (PI): Marvin Gershengorn This project aims to identify small drug-like molecules that activate (agonists) the thyrotropin releasing hormone (TRH) receptor (TRHR) or enhance its TRH-stimulated activity (allosteric enhancers). TRHR, a drug-accessible cell surface receptor expressed in specific brain regions, and its ligand TRH have been implicated in several central nervous system disorders, including depression and anxiety. Small molecule TRHR agonists or allosteric enhancers that are metabolically stable and able to cross the blood-brain barrier might serve as probes to elucidate the roles of brain TRH receptors in animal models, and might be valuable as lead compounds for the development of drugs to treat patients with central nervous system disorders. Upon TRHR-Gq activation in TRHR cells, intracellular calcium is released from stores in the endoplasmic reticulum. […] This primary screen measures compound-induced activation of calcium release.
# For the HTS assay freshly prepared cells are plated at a density of 2000/well in 3 ul of complete DMEM medium containing 10% serum in 1536-well plates and cultured over night at 37 C in a humidified incubator with 5% CO2. The next day, 2 ul of a no wash calcium dye (ABD Bioquest) was added to the cells and plates were incubated at room temperature for 1 hour. For the assay, assay plates were loaded into the FDSS kinetic plate reader. A 10 cycle (1 second/cycle) baseline measurement is taken and then the FDSS online 1536 pintool delivers 23 nl of compound library (as well as TRH controls) to the plate. The plate is measured for kinetically at 1 cycle/sec for 180 seconds and is considered to be the agonist portion of the assay (eg, compounds which activate a positive calcium response during this portion are flagged as potential agonists). Following the 180 second read, 1 ul of either an EC20 (positive modulation assay) is delivered by an onboard pipette head. Measurements are taken kinetically for an additional 180 seconds. TRHR FDSS Screening Protocol 1. Reagent, 3 uL 2000 cells/well 1536 TC treated Black plate in media containing 10% FCS 2. Time, 18 hours, 33.5C 5% CO2 (cells grown at 37C) 3. Reagent, 2 uL ABD fluo-8 Ca dye 4. Time, 30 min-1.5hrs hours, Room temp (6 plates/batch) 5. Detector, EX 480/EM 530C, FDSS 10 cycles baseline (1sec/cycle) 6. Compound, 23 nL of stock solution from library 7. Detector, EX 480/EM 530C, FDSS […] (1sec/cycle) Agonist mode 8. Compound, 1 ul EC20 of TRH made up in HEPES HBSS, 10 nM final 9. Detector, EX 480/EM 530C, FDSS 100 cycles (1sec/cycle) Potentiator mode
row,SMILES,activation
1,O=[N+]([O-])c1cc([N+](=O)[O-])c(-n2nnc3ccccc32)c([N+](=O)[O-])c1,inactive: -0.417%
2,Cc1nc2ccc3ccccc3c2s1.O=[N+]([O-])c1cc([N+](=O)[O-])c(O)c([N+](=O)[O-])c1,inactive: -0.8%
3,O=[N+]([O-])c1cc([N+](=O)[O-])c(Nc2nnnn2CCO)c([N+](=O)[O-])c1,inactive: -0.0829%
4,CC1=C2N=C(C=C3N=C(C(C)=C4[N-][C@@](C)([C@@H]5N=C1[C@](C)(CCC(=O)NC[C@@H](C)OP(=O)([O-])O[C@H]1[C@@H](O)[C@@H](n6cnc7cc(C)c(C)cc76)O[C@@H]1CO)[C@H]5CC(N)=O)[C@@](C)(CC(N)=O)[C@@H]4CCC(N)=O)[C@@](C)(CC(N)=O)[C@@H]3CCC(N)=O)C(C)(C)[C@@H]2CCC(N)=O.[C-]#N.[Co+3],inactive: 0.0606%
5,CP(=O)(Nc1ccc(SC(F)(F)F)cc1)Oc1ccccc1 (stereo unspecified),inactive: 0.863%
6,CCCOc1ccc(NP(C)(=O)Oc2ccc(Cl)cc2)cc1 (stereo unspecified),inactive: -1.27%
7,CN1CCCCC1COC(=O)C1(O)c2ccccc2CCc2ccccc21 (stereo unspecified),inactive: 0.029%
8,COc1ccccc1OP(C)(=O)Nc1c(C)cccc1C (stereo unspecified),inactive: 0.597%
9,CC1=NCCc2c1[nH]c1ccccc21.O=[N+]([O-])c1cc([N+](=O)[O-])c(O)c([N+](=O)[O-])c1,inactive: -0.0199%
10,Cc1cc(C)cc(OP(C)(=O)Nc2ccc(C)cc2C)c1 (stereo unspecified),inactive: 0.0166%
11,CCOC(=O)c1ccc(NP(C)(=O)Oc2cc(C)cc(C)c2)cc1 (stereo unspecified),inactive: 0.606%
12,COc1ccccc1OP(C)(=O)Nc1cccc(Br)c1 (stereo unspecified),inactive: -0.716%
13,CP(=O)(Nc1cccc(Br)c1)Oc1ccccc1 (stereo unspecified),inactive: -0.57%
14,Cc1cc(C)cc(OP(C)(=O)Nc2ccccn2)c1 (stereo unspecified),inactive: -1.06%
15,Cc1ccc(C)c(NP(C)(=O)Oc2ccccc2)c1 (stereo unspecified),inactive: -0.0372%
16,CCN(CC)CCCOC(=O)C(O)(c1ccccc1)c1ccccc1,inactive: 0.756%
17,CC(C)(C)c1ccc(OP(C)(=O)Nc2ccc(SC(F)(F)F)cc2)cc1 (stereo unspecified),inactive: -0.483%
18,Cc1cccc(C)c1OP(C)(N)=O (stereo unspecified),inactive: 0.367%
19,O=[N+]([O-])c1ccc2c(c1)C=Nc1ccccc1O2,inactive: 1.57%
20,O=[N+]([O-])c1cc([N+](=O)[O-])c(Nc2cccnc2)c([N+](=O)[O-])c1,inactive: 5.95%
21,COc1ccccc1OP(C)(=O)Nc1cc(Cl)ccc1C (stereo unspecified),inactive: -0.625%

row,SMILES,activation
1,COc1ccc(OP(C)(=O)Nc2cccc(F)c2)cc1 (stereo unspecified),inactive: -0.141%
2,Cc1cc(C)cc(OP(C)(N)=O)c1 (stereo unspecified),inactive: 0.0315%
3,CCOC(=O)c1ccc(NP(C)(=O)Oc2ccccc2)cc1 (stereo unspecified),inactive: 0.0438%
4,COc1ccccc1OP(C)(=O)Nc1ccc(C)cc1 (stereo unspecified),inactive: -0.301%
5,Cc1ccc(NP(C)(=O)Oc2ccccc2)c(C)c1 (stereo unspecified),inactive: -0.771%
6,COc1ccccc1OP(C)(=O)Nc1ccccc1 (stereo unspecified),inactive: -0.0829%
7,CP(=O)(Nc1ccccc1Br)Oc1ccccc1 (stereo unspecified),inactive: -0.574%
8,CP(=S)(Nn1cnnc1)Oc1ccccc1 (stereo unspecified),inactive: -0.205%
9,CCc1ccc(OP(C)(=O)N2CCN(c3ccc([N+](=O)[O-])cc3)CC2)cc1 (stereo unspecified),inactive: -0.132%
10,CP(=O)(NC(=O)Nc1ccccc1)Oc1ccccc1 (stereo unspecified),inactive: 0.355%
11,Cc1cc(C)cc(OP(C)(=O)Nc2ccc(SC(F)(F)F)cc2)c1 (stereo unspecified),inactive: 0.588%
12,CP(=O)(Nc1ccc(SC(F)(F)F)cc1)Oc1ccc(Cl)cc1 (stereo unspecified),inactive: 0.547%
13,Cc1cccc(C)c1OP(C)(=O)Nc1ccc(SC(F)(F)F)cc1 (stereo unspecified),inactive: 1.89%
14,CP(=O)(Oc1ccccc1)OC(c1ccccc1)C(F)(F)F (stereo unspecified),inactive: 0.0123%
15,CP(=O)(Nc1ccccn1)Oc1ccc(Cl)cc1 (stereo unspecified),inactive: -0.58%
16,CCOP(C)(=S)SCC(=O)NC(C)C(=O)O (stereo unspecified),inactive: -0.187%
17,CCOC(=O)c1ccc(NP(C)(=O)Oc2ccc(OC)cc2)cc1 (stereo unspecified),inactive: 0.98%
18,CP(=O)(Oc1ccccc1)N1CCOC1=O (stereo unspecified),inactive: 2.69%
19,CCc1ccc(OP(C)(=O)Nc2cccnc2)cc1 (stereo unspecified),inactive: -0.361%
20,COc1ccccc1OP(C)(=O)Nc1c(C)n(C)n(-c2ccccc2)c1=O (stereo unspecified),inactive: 0.241%
21,O=C(OCCCN1CCCC1)C(O)(c1ccccc1)C1CCCCC1 (stereo unspecified),inactive: 0.151%

row,SMILES,activation
1,CCN(CC)CC(O)COC(=O)C(O)(c1ccccc1)C1CCCCC1 (stereo unspecified),inactive: 0.104%
2,COc1ccc(OP(C)(=O)Nc2ccc(Br)cc2)cc1 (stereo unspecified),inactive: 0.0824%
3,CN(C)C(=O)c1c([N+](=O)[O-])cc([N+](=O)[O-])cc1[N+](=O)[O-],inactive: 0.879%
4,CP(=O)(Nc1ccc(Cl)cc1)Oc1ccc(F)cc1 (stereo unspecified),inactive: -0.0263%
5,CC(C)(C)c1ccc(OP(C)(=O)O)cc1,inactive: -1%
6,COc1ccccc1OP(C)(=O)Nc1ccccc1Br (stereo unspecified),inactive: -0.873%
7,CP(=O)(OC12CC3CC(CC(C3)C1)C2)OC12CC3CC(CC(C3)C1)C2,inactive: 1.71%
8,CCOC(=O)c1ccc(NP(C)(=O)Oc2ccc(Cl)cc2)cc1 (stereo unspecified),inactive: -0.32%
9,COc1ccc(OP(C)(=O)Nc2ccccc2Br)cc1 (stereo unspecified),inactive: -0.0453%
10,COc1ccccc1OP(C)(=O)Nc1ccc(C)c(C)c1 (stereo unspecified),inactive: 0.563%
11,Cc1cc(C)cc(OP(C)(=O)Nc2cccc(C(F)(F)F)c2)c1 (stereo unspecified),inactive: -1.31%
12,CP(=O)(OCCOc1ccccc1)OCCOc1ccccc1,inactive: -0.343%
13,CP(=O)(Nc1ccc(Cl)cc1Cl)Oc1ccccc1 (stereo unspecified),inactive: -0.182%
14,Cc1nc2ccc3ccccc3c2o1.O=[N+]([O-])c1cc([N+](=O)[O-])c(O)c([N+](=O)[O-])c1,inactive: -0.201%
15,CN(C)CCOC(=O)C(O)(c1ccccc1)C1CCCC1 (stereo unspecified),inactive: 0.104%
16,COc1ccc(OP(C)(=O)Nc2ccccn2)cc1 (stereo unspecified),inactive: 0.268%
17,COc1ccccc1OP(C)(=O)Nc1ccc(Br)cc1 (stereo unspecified),inactive: -0.0451%
18,CCc1ccc(OP(C)(=O)O)cc1,inactive: -1.15%
19,CP(=O)(Nc1ccccn1)Oc1ccccc1 (stereo unspecified),inactive: -2.2%
20,COc1ccccc1OP(C)(=O)Nc1ccc(C)cc1C (stereo unspecified),inactive: -0.876%
21,O=[N+]([O-])c1cc([N+](=O)[O-])c(Nc2ccccn2)c([N+](=O)[O-])c1,inactive: 2.98%

row,SMILES,activation
1,Cc1c(NP(C)(=O)Oc2ccc(C(C)C)cc2)c(=O)n(-c2ccccc2)n1C (stereo unspecified),inactive: -0.589%
2,CC(C)c1ccc(OP(C)(=O)Nc2ccc(SC(F)(F)F)cc2)cc1 (stereo unspecified),inactive: 0.296%
3,CP(=O)(Nc1ccccc1F)Oc1ccccc1 (stereo unspecified),inactive: 0.134%
4,O=C(OCCN1CCN(CCOCc2ccccc2)CC1)C(O)(c1ccccc1)c1ccccc1,inactive: -0.526%
5,COc1ccc(OP(C)(=O)Nc2ccc(SC(F)(F)F)cc2)cc1 (stereo unspecified),inactive: 1.83%
6,CCOC(=O)c1ccc(NP(C)(=O)Oc2ccc(F)cc2)cc1 (stereo unspecified),inactive: 1%
7,CCCCCOc1ccc(NP(C)(=O)Oc2ccc(Cl)cc2Cl)cc1 (stereo unspecified),inactive: 0.295%
8,CP(=O)(Nc1ccccc1)Oc1ccc(F)cc1 (stereo unspecified),inactive: -0.299%
9,CCN(CC)CCCOC(=O)C(O)(c1ccccc1)C1CCCCC1 (stereo unspecified),inactive: 0.191%
10,COc1ccc(NP(C)(=O)Oc2ccccc2OC)cc1 (stereo unspecified),inactive: 0.003%
11,CN(C)CCOC(=O)C(O)(c1ccccc1)C1CCCCC1 (stereo unspecified),inactive: 0.561%
12,COc1ccc(OP(C)(=O)Nc2cccc(Br)c2)cc1 (stereo unspecified),inactive: -0.512%
13,Cc1cc(-c2cccc3ccccc23)c(C)cn1.O=[N+]([O-])c1cc([N+](=O)[O-])c(O)c([N+](=O)[O-])c1,inactive: -1.44%
14,O=[N+]([O-])c1ccc(OP2(=O)COCCO2)cc1 (stereo unspecified),inactive: 1.13%
15,CCOP(C)(=S)SCC(=O)NC(C)(CC)C(=O)O (stereo unspecified),inactive: 0.574%
16,CP(=O)(Nc1ccc(SC(F)(F)F)cc1)Oc1ccc(F)cc1 (stereo unspecified),inactive: 0.862%
17,Cc1ccccc1NP(C)(=O)Nc1ccccc1C,inactive: -0.129%
18,CP(=O)(Nc1ccc2c(c1)OCCO2)Oc1ccccc1 (stereo unspecified),inactive: -0.123%
